The entries are a selection whose mix differs from that of the whole data set. The source made the active and inactive calls.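 The calls were made as follows: active = mean activation above the low control average plus 3 SD, as set in the primary screen (cut at about 12% in these data); inactive = the rest.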

This assay concerns the target Troponin I, cardiac muscle (Homo sapiens) + Troponin T, cardiac muscle (Homo sapiens) + Troponin C, slow skeletal and cardiac muscles (Homo sapiens) (UniProt P19429+P45379+P63316). Kind of assay: cardiac RTF calcium sensitivity activators, confirmation, biochemical, IANBD-TnC fluorescence, triplicate (AID 504383).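 Also: 0% = DMSO at 0.472 mM calcium and 100% = DMSO at 2.9 mM calcium.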 The settings on record: IANBD-labeled cardiac RTF, Ca2+ sensitivity fluorescence; at 7.2 µM; hits give high values; scaled from EC20 to saturating calcium; tested at EC20 calcium, 0.472 mM. The gist of the method:
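material = labelled regulated thin filaments | probe or stimulus = Ca2+ 0.472 mM, EC20 level | dosing = single nominal compound dose of 7.2 µM | schedule = 15 min at 25 °C | signal = fluorescence intensity of labelled filaments | evaluation = fluorescence gain scaled between EC20 and EC100 calcium controls | benchmarks = low control EC20 calcium, high control EC100 calcium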
With `CN(C)C(=O)c1c([N+](=O)[O-])cc([N+](=O)[O-])cc1[N+](=O)[O-]`, the activation was inactive: 6.49%. The result for `Cc1cccc(C)c1OP(C)(=O)Nc1ccc(SC(F)(F)F)cc1` (configuration not stated) reads inactive: 4.33%.

These data come from PubChem BioAssay AID504383 (The Scripps Research Institute Molecular Screening Center, 2011).
